Results from US20080015251A1, “Means and method for treating lipotoxicity and other metabolically related phenomena” (Yissum Research Development Co., of The Hebrew University …, priority 2006, published 2008).

Test system: J774.2 macrophages
Experiment: Cell viability by propidium iodide exclusion (membrane integrity), flow cytometry
Format: cell-based, Murine
Settings: 0.1% LE; AA 0.5 mM, resv 0.2 mM, querc 0.2 mM, lyc 10 AM, carot 10 AM, toc 0.2 mM, LA 0.25 mM, Se 1 AM (FIG. 8A)
Experimental: Murine J774.2 macrophages were cultured in RPMI medium enriched with 10% fetal calf serum, 1% glutamine, and 1% penicillin-streptomycin. […] Prior to experimental procedures, macrophages were seeded on 6-well plates at a concentration of 50,000 cells/ml.
The physiological range of TG in plasma is up to 1.5 mg/ml. […] Other agents, such as antioxidants or cycloheximide (CH), were added as specified in the relevant figure legends.
Cell membrane integrity was detected as previously described. Briefly, cells were stained with 2 Ag/ml propidium iodide (PI) and measured by flow cytometry, (FACS Calibur, Becton Dickinson, Calif.) at the following fluorescence setting: excitation at 488 nm and emission at 575 nm. Data were collected from 10,000 cells.

SMILES: [Se] [selenium]
- protection against TG-induced lipotoxicity (rate of cell death): did not have any protective effect or even enhanced the rate of cell death
